Values quoted from earlier work in patent US20070179113A1, “GM-CSF gene therapy for Crohn's disease using an improved regulated expression system” (Schering Aktiengesellachaft, priority 2005, published 2007).

Tested on: relapses in MS patients
Settings: cited from earlier work

B1: Recombinant interferon beta: recombinant interferon beta introduced in 1993 for treatment of MS (protein, UniProt P01574 22-187, looked up)
Interferon beta: MSYNLLGFLQRSSNFQCQKLLWQLNGRLEYCLKDRMNFDIPEEIKQLQQFQKEDAALTIYEMLQNIFAIFRQDSSSTGWNETIVENLLANVYHQINHLKTVLEEKLEKEDFTRGKLMSSLHLKRYYGRILHYLKAKEYSHCAWTIVRVEILRNFYFINRLTGYLRN
decrease in the number of relapses in MS patients, annually: 30-37%
